The values below are quoted from earlier work in article PMC7497626, “Ruthenium-Mediated ^18F-Fluorination and Preclinical Evaluation of a New CB1 Receptor Imaging Agent [^18F]FPATPP” (ACS Chemical Neuroscience, 2020).

The target in this series is CB1Rs. Set-up: method as in PMID 8070571. To be noted: cited from earlier work.

With `Cc1c(C(=O)NN2CCCCC2)nn(-c2ccc(Cl)cc2Cl)c1-c1ccc(Cl)cc1` [Rimonabant], the “Selectivity for CB1Rs over CB2Rs” value is “more than 1000 fold”. The Ki (as a rule, the dissociation constant of the complex between target and ligand, obtained from inhibition or displacement) (CB1Rs in the CNS) was 1.98 nM.
